Legend:
THP-1 cells = test: Inhibitory activity against THP-1 cells; type: cell-based; conditions: THP-1 cells (FLT3 wild type AML); data not shown
Kasumi-1 cells = test: Synergy of I-24/1481 with venetoclax in Kasumi-1 cells (MTS); type: cell-based; conditions: Homo sapiens, denominator of the dose ratio, read-out: concentration giving the IC50 response when administered alone
Protocol: Data were analyzed by Prism v 8. […] FIG. 15C depicts the relevant heat maps; data in the upper heat maps indicates the Bliss Scores, and the lower heat map indicates the individual data points for the various dose response curves. Methods: Day 0: Cell Line Plating in growth media recommended by ATCC using Tecan Fluent in 96 well plate (Eppendorf 0030730011); Day 1: Drug Addition. Venetoclax obtained from Selleckchem (S8048); Day 1→4: Incubate with Drug for 72 Hrs at 37 C, 5% CO2; Day 5: Add 20% original volume MTS (Promega G5440) and incubate for 4 Hrs.; Add 25% original volume 10% SDS (Invitrogen 24730-020) to lyse cells and stop conversion of MTS to formazan. Read out is colorimetric at 490 nm using a BioTek Synergy Neo Plate Reader.

[1] = test system: normal cord blood CD34+ cells; conditions: 1 μM, 10 days

Row | Compound | concentration without any inhibitory activity (THP-1 cells) [µM] | IC50 (Kasumi-1 cells) [nM] | colony formation of normal CD34+ cells [1]
1 | COc1cc2ncc(-c3cccc(NC4CCNC4)n3)n2cc1-c1cccnc1 (stereo not drawn) [Compound I-22, 6-(7-methoxy-6-(pyridin-3-yl)imidazo[1,2-a]pyridin-3-yl)-N-(pyrrolidin-3-yl)pyridin-2-amine] | > 10 | – | –
2 | COc1cc2ncc(-c3cccc(NC4CCNC4)n3)n2cc1-c1cnn(C)c1 (stereo not drawn) [Compound I-24, 6-(7-methoxy-6-(1-methyl-1H-pyrazol-4-yl)imidazo[1,2-a]pyridin-3-yl)-N-(pyrrolidin-3-yl)pyridin-2-amine] | – | 143 | inhibited colony formation of normal CD34+ cells

Reference: patent publication US11542261B2, “Substituted Imidazo[1,2-a]-pyridines as IRAK 1/4 and FLT3 inhibitors” (CHILDREN'S HOSPITAL MEDICAL CENTER, priority 2016, dated 2023)
